Molecular target: FKBP (Homo sapiens, UniProt P62942)
Assay: PPIase Inhibition Assay
Type: biochemical
Method: 1) Inhibition of PPIase Activity
This assay follows in principle the procedure described in Kofron et al., 1991, Biochemistry 30:6127.
The three main reagents used are PPIase, a substrate for PPIase, and a selected inhibitor compound of the present invention. The basic principle behind this assay is the conversion of the cis isomer of the substrate to the trans form, which conversion is catalyzed by PPIase. Essentially, inhibition of this PPIase activity is measured for the selected compounds. A peptide chymotrypsin substrate containing a proline in the P2 position is only cleaved by chymotrypsin when the Phe-Pro bond is in the trans isomeric configuration. […]
The cis peptide will spontaneously convert to the trans isomer at a slow rate. […] After isomerization, the peptide is cleaved by chymotrypsin releasing p-nitroaniline which can be monitored at 390 nm. The rate of release is then calculated using a first order rate plus offset equation utilizing the ENZFITTER program (Leatherbarrow, BIOSOFT, Cambridge, United Kingdom). […]
The absorbance at 390 nm versus time is monitored for 90 sec using a Beckman DU70 spectrophotometer. The absorbance versus time data files are transferred to an IBM XT computer and the rate constants determined using the commercial enzfitter program. For each set of data, the uncatalyzed rate of conversion is measured and the uninhibited enzymatic rate determined. […]

Amino acid sequences for entries named in this document (tags omitted).
UniProt P62942, whole entry: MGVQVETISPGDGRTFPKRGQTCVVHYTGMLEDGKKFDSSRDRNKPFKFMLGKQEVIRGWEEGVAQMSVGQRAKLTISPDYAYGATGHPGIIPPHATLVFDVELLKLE

Substance: L-Isoleuclne, N-[1-(2-(1-Methyl-Cyclohexyl)-2-Oxoethyl)-L-Prolyl] Benzylamide [Example 44]
- IC50: < 5 µM

From patent US5686424A, “2-oxoethyl derivatives as immunosuppressants” (Miles Inc., priority 1995, dated 1997)
